## Cyclic peptide permeability, from CycPeptMPDB

Collected by the curators of CycPeptMPDB (Li et al. 2023) from Townsend et al. 2020, doi:10.26434/chemrxiv.13335941.v1.

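The data file gives no further conditions (lipid, pH, time, direction or concentration), and values from different papers need not be comparable. Other peptides of the study may be missing here. Entries at the database's floor value (log10 P of -10) are not listed.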

PAMPA measures passive passage through an artificial lipid membrane.
Permeability is given as log10 of P in cm/s; higher (less negative) is more permeable.

SMILES	PAMPA (log10 cm/s)
CCCN1CC(=O)N(Cc2ccccc2)CC(=O)N[C@@H](CC(C)C)C(=O)N2CCC[C@H]2C(=O)N(C)[C@@H](CC(C)C)C(=O)N[C@@H](Cc2ccccc2)C(=O)N2CCC[C@@H]2C1=O	-5.18
CC(C)C[C@H]1C(=O)N(C)[C@@H](CC(C)C)C(=O)N2CCC[C@H]2C(=O)N(Cc2ccccc2)CC(=O)N[C@@H](Cc2ccccc2)C(=O)N[C@H](C)C(=O)N1C	-5.37
CCCN1CC(=O)N[C@H](CC(C)C)C(=O)N(Cc2ccccc2)CC(=O)N2CCC[C@H]2C(=O)N(C)[C@H](CC(C)C)C(=O)N[C@@H](Cc2ccccc2)C(=O)N2CCC[C@H]2C1=O	-5.87
CC(C)C[C@@H]1NC(=O)[C@@H](CC(C)C)N(C)C(=O)[C@@H](C)N(C)C(=O)[C@H](Cc2ccccc2)NC(=O)[C@@H](CC(C)C)NC(=O)[C@H]2CCCN2C1=O	-5.51
CC(C)C[C@@H]1C(=O)N[C@@H](Cc2ccccc2)CC(=O)N2CCC[C@@H]2C(=O)N(C)[C@H](CC(C)C)C(=O)N[C@@H](Cc2ccccc2)C(=O)N2CCC[C@H]2C(=O)N[C@@H](C)C(=O)N1C	-4.96
CC(C)C[C@@H]1NC(=O)[C@@H](CC(C)C)NC(=O)[C@H](C)NC(=O)[C@H](Cc2ccccc2)NC(=O)[C@H](CC(C)C)N(C)C(=O)[C@@H]2CCCN2C1=O	-5.88
CC(C)C[C@@H]1C(=O)N[C@@H](Cc2ccccc2)C(=O)N2CCC[C@@H]2C(=O)N[C@H](C)C(=O)N(C)[C@@H](CC(C)C)C(=O)N(Cc2ccccc2)CC(=O)N2CCC[C@@H]2C(=O)N1C	-5.96
CCCN1CC(=O)N(Cc2ccccc2)CC(=O)N[C@H](CC(C)C)C(=O)N2CCC[C@@H]2C(=O)N(C)[C@H](CC(C)C)C(=O)N[C@@H](Cc2ccccc2)C(=O)N2CCC[C@@H]2C1=O	-5.66
CC(C)C[C@@H]1C(=O)N(Cc2ccccc2)CC(=O)N2CCC[C@H]2C(=O)N(C)[C@@H](CC(C)C)C(=O)N[C@@H](Cc2ccccc2)C(=O)N2CCC[C@@H]2C(=O)N[C@@H](Cc2ccccc2)CC(=O)N1C	-5.64
CCCN1CC(=O)N(C)[C@H](CC(C)C)C(=O)N[C@@H](CC(C)C)C(=O)N2CCC[C@H]2C(=O)N(C)[C@@H](CC(C)C)C(=O)N[C@@H](Cc2ccccc2)C(=O)N2CCC[C@@H]2C1=O	-4.98
CC(C)C[C@@H]1NC(=O)[C@H](C)N(C)C(=O)[C@H](Cc2ccccc2)NC(=O)[C@@H](CC(C)C)NC(=O)[C@@H]2CCCN2C(=O)[C@@H](CC(C)C)NC1=O	-5.61
CC(C)C[C@@H]1NC(=O)[C@H]2CCCN2C(=O)[C@H](CC(C)C)N(C)C(=O)[C@@H](CC(C)C)NC(=O)[C@@H](C)N(C)C(=O)[C@H](Cc2ccccc2)NC1=O	-5.53
CC(C)C[C@@H]1NC(=O)C[C@H](Cc2ccccc2)NC(=O)[C@H]2CCCN2C(=O)[C@H](Cc2ccccc2)NC(=O)[C@H](CC(C)C)NC(=O)[C@H]2CCCN2C(=O)C[C@H](Cc2ccccc2)NC1=O	-6.14
CC(C)C[C@@H]1NC(=O)[C@@H](C)N(C)C(=O)[C@@H]2CCCN2C(=O)[C@H](Cc2ccccc2)NC(=O)CN(Cc2ccccc2)C(=O)[C@H]2CCCN2C(=O)[C@@H](CC(C)C)N(C)C1=O	-6.05
CC(C)C[C@@H]1C(=O)N[C@@H](Cc2ccccc2)C(=O)N2CCC[C@H]2C(=O)N(C)[C@H](C)C(=O)N(C)[C@@H](CC(C)C)C(=O)N[C@@H](Cc2ccccc2)CC(=O)N2CCC[C@@H]2C(=O)N1C	-5.76
CCCN1CC(=O)N[C@@H](CC(C)C)C(=O)N[C@@H](CC(C)C)C(=O)N2CCC[C@@H]2C(=O)N[C@@H](CC(C)C)C(=O)N[C@@H](Cc2ccccc2)C(=O)N2CCC[C@H]2C1=O	-6.55
CC(C)C[C@@H]1C(=O)N[C@@H](Cc2ccccc2)C(=O)N(C)[C@H](C)C(=O)N(C)[C@@H](CC(C)C)C(=O)N[C@@H](Cc2ccccc2)CC(=O)N2CCC[C@@H]2C(=O)N1C	-5.40
CC(C)C[C@@H]1NC(=O)[C@H](CC(C)C)N(C)C(=O)[C@H](C)N(C)C(=O)[C@H]2CCCN2C(=O)[C@H](Cc2ccccc2)NC(=O)CN(Cc2ccccc2)C(=O)[C@@H]2CCCN2C1=O	-5.19

The 3 lowest values of PAMPA among the entries above:

{"smiles": "CCCN1CC(=O)N[C@@H](CC(C)C)C(=O)N[C@@H](CC(C)C)C(=O)N2CCC[C@@H]2C(=O)N[C@@H](CC(C)C)C(=O)N[C@@H](Cc2ccccc2)C(=O)N2CCC[C@H]2C1=O", "PAMPA (log10 cm/s)": "-6.55"}
{"smiles": "CC(C)C[C@@H]1NC(=O)C[C@H](Cc2ccccc2)NC(=O)[C@H]2CCCN2C(=O)[C@H](Cc2ccccc2)NC(=O)[C@H](CC(C)C)NC(=O)[C@H]2CCCN2C(=O)C[C@H](Cc2ccccc2)NC1=O", "PAMPA (log10 cm/s)": "-6.14"}
{"smiles": "CC(C)C[C@@H]1NC(=O)[C@@H](C)N(C)C(=O)[C@@H]2CCCN2C(=O)[C@H](Cc2ccccc2)NC(=O)CN(Cc2ccccc2)C(=O)[C@H]2CCCN2C(=O)[C@@H](CC(C)C)N(C)C1=O", "PAMPA (log10 cm/s)": "-6.05"}